Reference: PubChem BioAssay AID454 (Sanford-Burnham Center for Chemical Genomics, 2006)
The entries are a selection whose mix differs from that of the whole data set. Some tests of the compounds listed are not included; inactive here does not mean inactive elsewhere. Calls of active or inactive are those of the source.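 How the source made its calls: active means compound among top-ranked inhibitors of TNF-induced VCAM-1 adhesion protein staining, with the hit upheld by image or statistical review; inactive means the rest, including hits rejected on review.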

Test: suppression of endothelial VCAM-1 upregulation – cell-based, plate reader, pooled HUVEC, TNFa stimulus (AID 454)
Settings: HUVEC TNFa-induced VCAM-1 surface immunofluorescence
With O=C(OC1CN2CCC1CC2)C(CO)(c1ccccc1)c1ccccc1 (stereo unspecified) the outcome was “inactive”.
